PubChem BioAssay AID1224865 (Sanford-Burnham Center for Chemical Genomics, 2016)
Only a part is listed here, and it is no random draw. The source made the active and inactive calls. Rule as the data show it: active = activity change above about 30% (passing the limit was not always enough); inactive = the rest.

Chains of the proteins cited; added tags and fusions are not shown.
UniProt P41235, whole entry: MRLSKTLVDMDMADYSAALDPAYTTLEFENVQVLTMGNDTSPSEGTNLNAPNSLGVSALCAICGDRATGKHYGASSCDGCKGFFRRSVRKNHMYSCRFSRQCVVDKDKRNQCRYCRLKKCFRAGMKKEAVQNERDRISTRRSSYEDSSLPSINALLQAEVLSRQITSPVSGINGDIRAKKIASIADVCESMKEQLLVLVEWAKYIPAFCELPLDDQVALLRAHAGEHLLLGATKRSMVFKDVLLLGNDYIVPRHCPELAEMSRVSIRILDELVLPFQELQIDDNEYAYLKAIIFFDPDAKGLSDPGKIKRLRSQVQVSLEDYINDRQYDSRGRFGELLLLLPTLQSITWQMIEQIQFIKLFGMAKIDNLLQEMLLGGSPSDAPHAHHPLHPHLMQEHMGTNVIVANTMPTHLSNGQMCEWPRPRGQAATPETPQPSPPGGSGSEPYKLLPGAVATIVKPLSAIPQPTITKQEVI

Target: Hepatocyte nuclear factor 4-alpha (Homo sapiens) (UniProt P41235)
Experiment: change in binding of human HNF4A to DNA, primary screen, biochemical, fluorescence polarization, FITC-DNA (AID 1224865)
Conditions: 1 h, at 10 µM, stronger effect = higher value

Row | SMILES | activity change
1 | O=c1[nH]c2ccccc2n1C1CCN(C(c2ccccc2)c2nnnn2C2CCCCC2)CC1 (stereo unspecified) | inactive: -4.22%
2 | O=c1[nH]c2ccccc2n1C1CCN(C(c2cccc3ccccc23)c2nnnn2C2CCCC2)CC1 (stereo unspecified) | inactive: -2.35%
3 | COc1cc(C(=O)NCC2(N(C)C)CCCCC2)ccc1OC(F)F | inactive: -0.14%
4 | CCOC(=O)N1CCC(Nc2cccc(C)c2)CC1 | inactive: 4.46%
5 | CCOc1ccc(C)cc1CN(CCCl)CCCl | inactive: 1.78%
6 | CC(C)(C)n1nnnc1C(c1ccccc1)N1CCC(n2c(=O)[nH]c3ccccc32)CC1 (stereo unspecified) | inactive: 0.51%
7 | O=C1CCN(Cc2ccccc2)CC1 | inactive: 8.79%
8 | O=C(NCC1(N2CCCCC2)CCCCC1)c1ccc(F)cc1 | inactive: 2.05%
9 | O=P1(N(CCCl)CCCl)SCCCS1 | inactive: -5.29%
10 | CCCCn1nnnc1C(c1cc2ccccc2o1)N1CCC(n2c(=O)[nH]c3ccccc32)CC1 (stereo unspecified) | inactive: 0.39%
11 | CCCCOc1ccc(C(=O)NCC2(N3CCOCC3)CCCCC2)cc1 | inactive: -1.48%
12 | COc1ccc(NC2CCN(CCc3ccccc3)CC2)c(OC)c1 | inactive: -2.25%
13 | CCOC(=O)N1CCC(Nc2ccc(F)cc2)CC1 | inactive: -0.66%
14 | O=C(NCC1(N2CCOCC2)CCCCC1)c1cc2ccccc2o1 | inactive: 0.06%
15 | O=c1[nH]c2ccccc2n1C1CCN(C(c2ccccc2OC(F)(F)F)c2nnnn2C2CCCCC2)CC1 (stereo unspecified) | inactive: -0.08%
16 | O=C(NCC1(N2CCCCC2)CCCCC1)c1ccc(Cl)nc1 | inactive: -0.16%
17 | Cc1cc(C)cc(N(C(=O)c2ccccc2)C2CCN(C(=O)OC(C)(C)C)CC2)c1 | inactive: 2.42%
18 | CCOC(=O)N1CCC(Nc2ccc(OC)cc2)CC1 | inactive: 1.62%
19 | CCCCn1nnnc1C(c1ccc(OC)cc1)N1CCC(n2c(=O)[nH]c3ccccc32)CC1 (stereo unspecified) | inactive: 2.82%
20 | O=C(OC1CN2CCC1CC2)C1c2ccccc2Oc2ccccc21 (stereo unspecified) | inactive: -11.3%
21 | O=c1[nH]c2ccccc2n1C1CCN(C(c2cc3ccccc3o2)c2nnnn2C2CCCCC2)CC1 (stereo unspecified) | inactive: -0.61%

Row | SMILES | activity change
22 | N#CC1(Nc2ccccc2)CCN(Cc2ccccc2)CC1 | inactive: -1.64%
23 | O=C(NCC1(N2CCCCC2)CCCCC1)c1ccc(Cl)s1 | inactive: 3.39%
24 | COc1ccc(Cl)cc1C(=O)NCC1(N2CCOCC2)CCCCC1 | inactive: 0.97%
25 | O=C(NCC1(N2CCCCC2)CCCCC1)c1ccc(=O)[nH]c1 | inactive: -0.81%
26 | CCCCn1nnnc1C(c1cccs1)N1CCC(n2c(=O)[nH]c3ccccc32)CC1 (stereo unspecified) | inactive: 1.74%
27 | CCCCn1nnnc1C(CC)N1CCC(n2c(=O)[nH]c3ccccc32)CC1 (stereo unspecified) | inactive: -0.93%
28 | O=C(NCC1(N2CCCCC2)CCCCC1)c1cccs1 | inactive: -1.49%
29 | COc1ccc(C(=O)NCC2(N3CCCCC3)CCCCC2)cc1 | inactive: 2.77%
30 | CCC(c1nnnn1C1CCCC1)N1CCC(n2c(=O)[nH]c3ccccc32)CC1 (stereo unspecified) | inactive: 1.44%
31 | COc1ccc(C(=O)NCC2(N3CCCCC3)CCCCC2)c(OC)c1OC | inactive: -2.19%
32 | CC(C)(C)OC(=O)N1CCC(N(C(=O)c2ccccc2)c2ccc(F)cc2)CC1 | inactive: 0.48%
33 | CSc1ccccc1C(=O)NCC1(N2CCCCC2)CCCCC1 | inactive: 2.34%
34 | Cc1cccc(NC2(C#N)CCN(Cc3ccccc3)CC2)c1 | inactive: 10.1%
35 | O=C(NCC1(N2CCCCC2)CCCCC1)c1cncc(Br)c1 | inactive: 0.95%
36 | CN1CCC(Nc2cccc(F)c2)CC1 | inactive: -2.44%
37 | Cc1ccc(C(=O)NCC2(N(C)C)CCCCC2)o1 | inactive: -2.5%
38 | CCCOc1ccc(C(=O)NCC2(N(C)C)CCCCC2)cc1OC | inactive: -1.86%
39 | COc1ccc(C(c2nnnn2C2CCCC2)N2CCC(n3c(=O)[nH]c4ccccc43)CC2)cc1 (stereo unspecified) | inactive: 4.75%
40 | COc1ccc(CN(CCCl)CCCl)cc1Cl | inactive: -1.88%
41 | CN(C)c1cccc(C(=O)NCC2(N3CCCCC3)CCCCC2)c1 | inactive: -1.18%
42 | CC(C)c1ccc(NC2CCN(C(=O)OC(C)(C)C)CC2)cc1 | inactive: 0.1%

Row | SMILES | activity change
43 | CCCCn1nnnc1C(c1ccccc1OC(F)(F)F)N1CCC(n2c(=O)[nH]c3ccccc32)CC1 (stereo unspecified) | inactive: 1.08%
44 | CCCCn1nnnc1C(c1ccnc2ccccc12)N1CCC(n2c(=O)[nH]c3ccccc32)CC1 (stereo unspecified) | inactive: -2.95%
45 | COc1cc(OC)c(C(=O)NCC2(N(C)C)CCCCC2)cc1OC | inactive: -0.9%
46 | O=C(NCC1(N2CCOCC2)CCCCC1)c1cc(F)c(F)cc1Cl | inactive: 0.02%
47 | CCC(c1nnnn1C(C)(C)C)N1CCC(n2c(=O)[nH]c3ccccc32)CC1 (stereo unspecified) | inactive: 2.63%
48 | O=C(NCC1(N2CCCCC2)CCCCC1)c1cccc(C(F)(F)F)c1 | inactive: 1.8%
49 | CCCCn1nnnc1C(c1cccc2ccccc12)N1CCC(n2c(=O)[nH]c3ccccc32)CC1 (stereo unspecified) | inactive: 0.57%
50 | CN1CCN(CCOC(=O)C(O)(c2ccccc2)c2ccccc2)CC1 | inactive: 3.22%
51 | COc1ccc(NC2CCN(C(=O)OC(C)(C)C)CC2)cc1 | inactive: -0.91%
52 | CC(C)c1ccc(C(=O)NCC2(N3CCOCC3)CCCCC2)cc1 | inactive: -0.83%
53 | COc1cc(C(=O)NCC2(N3CCCCC3)CCCCC2)ccc1OC(F)F | inactive: 0.42%
54 | O=C(NCC1(N2CCOCC2)CCCCC1)c1cc(=O)[nH]c2ccccc12 | inactive: 0.83%
55 | CC(C)(C)n1nnnc1C(c1ccccc1OC(F)(F)F)N1CCC(n2c(=O)[nH]c3ccccc32)CC1 (stereo unspecified) | inactive: -7.1%
56 | O=C(NCC1(N2CCCCC2)CCCCC1)c1ccc(OC(F)F)cc1 | inactive: 4.66%
57 | CSc1ccc(C(=O)NCC2(N3CCOCC3)CCCCC2)cc1 | inactive: 0.2%
58 | O=C(NCC1(N2CCCCC2)CCCCC1)c1cccc([N+](=O)[O-])c1 | inactive: 5.6%
59 | CCN1CCC(Nc2ccc(Cl)cc2)CC1 | inactive: 1.41%
60 | N#CC1(Nc2ccccc2)CCN(CCc2ccccc2)CC1 | inactive: -2.83%
61 | O=c1[nH]c2ccccc2n1C1CCN(C(c2ccccc2OC(F)(F)F)c2nnnn2C2CCCC2)CC1 (stereo unspecified) | inactive: 0.9%
